# Binding of CDR-mutated scFvs to a peptide of the spike HR2 region

Data: MIT Lincoln Laboratory AlphaSeq set, Engelhart et al. 2022, doi:10.1038/s41597-022-01779-4, as distributed in FLAb.

Target: peptide PDVDLGDISGINAS, taken from heptad repeat 2 (HR2) of SARS-CoV-2 spike.

Parent scFv Ab-14: VH joined to VL by a 15-residue (Gly4Ser)3 linker. Changes lie in the light chain CDRs alone.
VH: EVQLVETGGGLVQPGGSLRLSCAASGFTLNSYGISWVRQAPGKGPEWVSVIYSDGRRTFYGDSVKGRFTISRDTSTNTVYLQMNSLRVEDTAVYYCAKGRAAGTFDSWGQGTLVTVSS
VL: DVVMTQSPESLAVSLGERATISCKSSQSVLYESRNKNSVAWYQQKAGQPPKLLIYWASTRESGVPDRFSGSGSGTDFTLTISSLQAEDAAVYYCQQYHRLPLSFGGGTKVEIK

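The starting antibody came from a phage panning campaign against this peptide. AAYL50 was designed without a model: most single CDR substitutions and a random sample of double and triple ones. Affinity was read by AlphaSeq, a pooled yeast mating assay with surface-displayed partners. Mating (16 h, 30 °C) was followed by selection of diploids and sequencing of their barcodes. The ratio of observed to expected reads was calibrated, replicate by replicate, on BCL2-family standards whose Kd was known from biolayer interferometry. The assay was run in three technical replicates.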

Each variant is given by its three light chain CDRs, as the data file delimits them; those of the parent are KSSQSVLYESRNKNSVA, WASTRES, QQYHRLPLS. This list gathers variants with a substitution at S33 (VL, numbered from residue 1). Scale: log10 of Kd in nM, estimated from mating counts; low values are strong binders. "ND" marks a missing value. The strain was present, yet no cells mated with the target were sequenced in that replicate, which points to weak or no binding. Three control strains display no target. For library AAYL50, 18% of the pairings with them gave a signal, with a median of 4.19 and one signal in twenty below 2.99, so weak values seen in few replicates may be background. The control count says in how many pairings with the empty strains this scFv gave a signal.

For KSSQSVLYENRNKNCNA, WASTRES, QQYHRLPLS, the assay gave ND, 4.15, ND (controls 5 of 9).
For KSSKSVLYEIRNKLSVA, WASTRES, QQYHRLPLS, the assay gave 2.43, 2.22, 2.37 (controls 2 of 9).
For KSSQSVLYEAHNKNSVA, WASTRES, QRYHRLPLS, the assay gave ND, ND, ND (controls 1 of 9).
For KSSQSVLYENRNKNSVE, WASTRES, QQMHRLPLS, the assay gave 4.69, ND, ND (controls 0 of 9).
For KSSQSVLYEARNKNSVA, WASERES, QQYIRLPLS, the assay gave 0.34, 0.66, 0.54 (controls 2 of 9).
For KSSQSVLYEAMNKNSVA, WASTRES, QQYHRLPLS, the assay gave ND, ND, ND (controls 0 of 9).
For YSSQSVLYEERNKNSVA, WASTRES, QQYHRLPLS, the assay gave 1.03, 0.96, 0.90 (controls 0 of 9).
For KSSQSVLYEYRNRNSVA, WASTRES, QQYHRPPLS, the assay gave ND, 3.57, ND (controls 2 of 9).
For KSSQSVLYEYRNDNSVI, WASTRES, QQYHRLPLS, the assay gave ND, ND, 5.92 (controls 4 of 9).
For KSSQSVLYEDRNKNSVA, WASTRES, QQYHRLPLS, the assay gave 0.27, 0.48, 0.43 (controls 2 of 9).
For KSSQSVLYEQRNKNSVA, WASTRES, QQYHRLPLS, the assay gave 1.25, 1.22, 1.45 (controls 5 of 9).
For KSSQSVQYFKRNKNSVA, WASTRES, QQYHRLPLS, the assay gave 3.06, 3.09, 3.21 (controls 1 of 9).
For KSSQSVLYEARNKNSVA, WASTRES, QQYHRSELS, the assay gave 2.18, 1.75, 1.74 (controls 0 of 9).
For KSSQSVLYEDRNKLSVA, WASTRES, QQYHRGPLS, the assay gave ND, ND, ND (controls 0 of 9).
For KSSQSVLYEHRNKNSVA, WASTRES, QQYHRLPLS, the assay gave 1.63, 1.76, 1.62 (controls 0 of 9).
For KSSQSVLYEFRNKNSVA, WASTRES, QQYHMIPLS, the assay gave ND, ND, ND (controls 0 of 9).
For WSSQSVLYEFRNKNSVA, WAVTRES, QQYHRLPLS, the assay gave ND, ND, 4.69 (controls 5 of 9).
For CSSQSVLYEFRNKYSVA, WASTRES, QQYHRLPLS, the assay gave 4.31, 3.20, ND (controls 4 of 9).
For KSSQSVLYEQRNKYSVA, WAQTRES, QQYHRLPLS, the assay gave ND, ND, ND (controls 0 of 9).
For KSSQSVLYEGRNYNSVA, WASTRES, QQYHRLPWS, the assay gave ND, 3.89, 2.70 (controls 1 of 9).
For KSSQSVLYEFRNKNSVA, WASTREL, QQYHRYPLS, the assay gave ND, 1.79, ND (controls 0 of 9).
For KSSQSVLYEYRNKNSVA, WASTRRS, QQYHRLPLS, the assay gave 3.09, 3.30, ND (controls 1 of 9).
For KSMQSVLYEGQNKNSVA, WASTRES, QQYHRLPLS, the assay gave 0.34, 0.67, 0.57 (controls 1 of 9).
For KSSQSVLYENRNKNSGA, FASTRES, QQYHRLPLS, the assay gave ND, 4.13, ND (controls 1 of 9).
For KSSQSVLYECRNKVSVA, WISTRES, QQYHRLPLS, the assay gave 3.47, 2.93, 3.91 (controls 4 of 9).
For KSSQSVLYEQENKNSVA, WASTRES, QQQHRLPLS, the assay gave -0.07, 0.30, 0.00 (controls 0 of 9).
For KSSQSVLYEMRNKCSVA, WPSTRES, QQYHRLPLS, the assay gave ND, ND, ND (controls 0 of 9).
For KSSQSVLYETRNKNSVA, WASTRES, QIYHRLPFS, the assay gave 3.49, 4.21, ND (controls 3 of 9).
For KSSQSVLYEWRNANSVA, WASTRES, QQYHRLPLS, the assay gave 1.16, 1.38, 1.33 (controls 0 of 9).
For KSSQSVLYEWRNKGSVA, WASTRSS, QQYHRLPLS, the assay gave 2.39, 1.94, 2.14 (controls 0 of 9).
For ISSNSVLYEDRNKNSVA, WASTRES, QQYHRLPLS, the assay gave 0.88, 1.23, 0.82 (controls 0 of 9).
For KSSQSVLYEERNKNSQA, WASTRES, QQYHRLSLS, the assay gave ND, ND, ND (controls 0 of 9).
For KSSHSVKYERRNKNSVA, WASTRES, QQYHRLPLS, the assay gave 4.40, 3.07, 3.23 (controls 2 of 9).
For KSSESVLYELRNKNSVA, WASTRYS, QQYHRLPLS, the assay gave 1.29, 1.84, 1.61 (controls 0 of 9).
For KSSQSVLYEAINKNSVA, WASTRES, QQYHRLYLS, the assay gave ND, 3.59, ND (controls 0 of 9).
For NSSQSVLYERRNKNSVA, WASTRES, QQNHRLPLS, the assay gave 5.10, 2.89, 3.58 (controls 2 of 9).
For KSSQSVLYEIRNQNSVA, WAWTRES, QQYHRLPLS, the assay gave ND, ND, ND (controls 0 of 9).
For KSSQSVLYEPRNKNSVA, WASTRES, QQYHRLVLR, the assay gave ND, ND, ND (controls 3 of 9).
For TSSQSVLYERRNKNSVA, WYSTRES, QQYHRLPLS, the assay gave ND, 3.28, 4.49 (controls 2 of 9).
For KSNQSVLYEVRNKNSVA, WASTRES, QQYHRLPWS, the assay gave ND, ND, 3.49 (controls 1 of 9).
For KSSQNVLYETRNKNSRA, WASTRES, QQYHRLPLS, the assay gave ND, ND, ND (controls 1 of 9).
For KSSQSVLYEVRNKNSVA, WASTRES, QQYRRPPLS, the assay gave ND, ND, ND (controls 1 of 9).
For KSSQSVTYECRNKNSVA, WQSTRES, QQYHRLPLS, the assay gave ND, 3.86, 4.31 (controls 1 of 9).
For KSSQSVLYEHRNKCSVF, WASTRES, QQYHRLPLS, the assay gave ND, ND, ND (controls 2 of 9).
For KSSQSVLYEERDKNWVA, WASTRES, QQYHRLPLS, the assay gave ND, ND, ND (controls 0 of 9).
For KSSQSVLYELRNKNSVA, WASTRES, QQAHRLPLS, the assay gave ND, 4.01, ND (controls 2 of 9).
For KSSQSVSYEFRNKNSVA, WASTRES, QQYHRLTLS, the assay gave 1.06, 1.20, 1.20 (controls 0 of 9).
For KSSQSVQYENRNKNSVA, WASTRES, QQYHRAPLS, the assay gave 0.62, 0.94, 0.87 (controls 4 of 9).
For KSSQSVLYEHRNKNSVA, WASTRYS, QQYFRLPLS, the assay gave 1.23, 1.17, 1.59 (controls 1 of 9).
For KSSQSVLYELRNKCSVA, WASTREI, QQYHRLPLS, the assay gave 3.43, 4.14, ND (controls 4 of 9).
For KSYRSVLYEPRNKNSVA, WASTRES, QQYHRLPLS, the assay gave 3.30, 2.33, 3.07 (controls 3 of 9).
For KSSQSVLYEERSKNSVA, WASTRER, QQYHRLPLS, the assay gave 0.69, 0.88, 0.83 (controls 4 of 9).

The 8 strongest on average among those seen in every replicate, once more:

{"CDR-L1": "KSSQSVLYEQENKNSVA", "CDR-L2": "WASTRES", "CDR-L3": "QQQHRLPLS", "log10 Kd, replicates": "-0.07, 0.30, 0.00", "signal with controls": "0/9"}
{"CDR-L1": "KSSQSVLYEDRNKNSVA", "CDR-L2": "WASTRES", "CDR-L3": "QQYHRLPLS", "log10 Kd, replicates": "0.27, 0.48, 0.43", "signal with controls": "2/9"}
{"CDR-L1": "KSSQSVLYEARNKNSVA", "CDR-L2": "WASERES", "CDR-L3": "QQYIRLPLS", "log10 Kd, replicates": "0.34, 0.66, 0.54", "signal with controls": "2/9"}
{"CDR-L1": "KSMQSVLYEGQNKNSVA", "CDR-L2": "WASTRES", "CDR-L3": "QQYHRLPLS", "log10 Kd, replicates": "0.34, 0.67, 0.57", "signal with controls": "1/9"}
{"CDR-L1": "KSSQSVLYEERSKNSVA", "CDR-L2": "WASTRER", "CDR-L3": "QQYHRLPLS", "log10 Kd, replicates": "0.69, 0.88, 0.83", "signal with controls": "4/9"}
{"CDR-L1": "KSSQSVQYENRNKNSVA", "CDR-L2": "WASTRES", "CDR-L3": "QQYHRAPLS", "log10 Kd, replicates": "0.62, 0.94, 0.87", "signal with controls": "4/9"}
{"CDR-L1": "YSSQSVLYEERNKNSVA", "CDR-L2": "WASTRES", "CDR-L3": "QQYHRLPLS", "log10 Kd, replicates": "1.03, 0.96, 0.90", "signal with controls": "0/9"}
{"CDR-L1": "ISSNSVLYEDRNKNSVA", "CDR-L2": "WASTRES", "CDR-L3": "QQYHRLPLS", "log10 Kd, replicates": "0.88, 1.23, 0.82", "signal with controls": "0/9"}